Series [1] in a line: in vivo. The following applies: mouse, po, 25 mg/kg; for concentration at 0.5 h: 0.500 hr.

“And” between values parts separate entries of the source, which are not always exact repeats. Identical values can stand only once.

On to `COc1ccc2c(NCc3cccnc3)ccnc2c1` [QR2I-44, 7-methoxy-4-(pyridin-3-yl) methylaminoquinoline], for which, under “PO 25 mg/kg, 6.00 hr, Rep # 1-6 (animals 7-12), BQL = <5.00 ng/mL, 25 mg/kg”, the “Concentrations in Mouse Brain Homogenate, individual animals” value was “BQL (Below the quantitation limit (<5.00 ng/mL)) (4×) and 5.08 ng/mL”. The “absorption and brain penetration” value (mice, IV, IP and PO) was “well absorbed and to be brain penetrant”. Besides, the concentration at 0.5 h stood at 559 ng/mL in series [1] (brain homogenate, Concentrations in Mouse Brain Homogenate, Mean) and 856 ng/mL in series [1] (plasma, Concentrations in Mouse Plasma, Mean). Also, the concentration at 6 h in series [1] (brain homogenate, Concentrations in Mouse Brain Homogenate, Mean, 6.00 hr (mean of quantifiable samples)) amounted to 5.25 ng/mL; in series [1] (brain homogenate, Concentrations in Mouse Brain Homogenate, individual animals, 6.00 hr, Rep # 1-6 (animals 7-12), BQL = <5.00 ng/mL), 5.42 ng/mL; in series [1] (plasma, Concentrations in Mouse Plasma, Mean, 6.00 hr), 13 ng/mL.

The values are drawn from patent US12331032B2, “Quinone reductase 2 inhibitor compounds and uses thereof” (DUKE UNIVERSITY, priority 2018, dated 2025).
